3 molecules from patent US10919885B2, “Compounds and uses thereof” (Yumanity Therapeutics, Inc., priority 2018, dated 2021) can be followed below.

By UniProt entry, the sequences of proteins in these tests, tags left out. Where a name states a change or a piece, a line headed by the entry shows the natural chain unless it says otherwise.
UniProt Q86SK9: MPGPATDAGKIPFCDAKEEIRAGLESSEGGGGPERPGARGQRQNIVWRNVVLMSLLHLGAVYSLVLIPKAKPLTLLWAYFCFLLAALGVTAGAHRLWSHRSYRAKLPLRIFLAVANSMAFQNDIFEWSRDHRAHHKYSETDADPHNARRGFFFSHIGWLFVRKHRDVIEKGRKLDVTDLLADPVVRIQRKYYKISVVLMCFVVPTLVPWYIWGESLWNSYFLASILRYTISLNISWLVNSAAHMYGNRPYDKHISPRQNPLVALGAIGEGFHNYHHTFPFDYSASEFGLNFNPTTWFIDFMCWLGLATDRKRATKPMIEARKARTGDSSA
UniProt O00767: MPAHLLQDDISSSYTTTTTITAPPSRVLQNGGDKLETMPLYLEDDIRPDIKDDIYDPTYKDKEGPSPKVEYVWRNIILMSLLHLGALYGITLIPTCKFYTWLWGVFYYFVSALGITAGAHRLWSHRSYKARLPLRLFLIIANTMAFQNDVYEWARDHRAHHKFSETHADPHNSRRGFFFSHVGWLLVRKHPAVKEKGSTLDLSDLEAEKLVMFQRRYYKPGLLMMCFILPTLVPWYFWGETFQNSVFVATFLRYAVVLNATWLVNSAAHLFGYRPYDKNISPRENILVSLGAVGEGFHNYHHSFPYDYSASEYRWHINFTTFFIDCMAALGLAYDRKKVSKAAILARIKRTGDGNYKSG

Experiment [1] has as its target human SCD5 (Homo sapiens (Human), UniProt Q86SK9). Kind of experiment: Yeast growth assay, strain expressing human SCD5 as the sole desaturase (reduced growth as surrogate for SCD inhibition). Format: cell-based. The settings on record: yeast with OLE1 deleted expressing human SCD5 from a plasmid; growth read as OD600 after 40 h at 30° C.; top drug concentration 33.3 μM. How it is done: (§1) Strains expressing SCD1 or SCD5 as the sole desaturase, the human SCD1 and SCD5 genes were used to evaluate inhibition of SCD1/SCD5 using reduced growth as a surrogate for SCD inhibition. These yeast strains express human SCD1 or SCD5 from a plasmid harbored in a strain in which the yeast OLE1 gene is deleted.
(§2) All compound profiling experiments were performed using the same basic protocol. Yeast were cultured using standard techniques in complete synthetic media lacking uracil and containing yeast nitrogen base supplemented with 2% (w/v) glucose (SD-Ura) Starter cultures were inoculated in 3 mL SD-Ura media containing 0.01% tween and 0.2 mM palmitoleic and oleic acid. Cultures were incubated overnight in a 30° C. shaker incubator (225 rpm). Saturated morning cultures were centrifuged, washed in SD-Ura media lacking TWEEN-20 and fatty acids, and then diluted 1:20 in fresh SD-Ura media also lacking TWEEN-20 and fatty acids.
(§3) Compound administration was performed in two separate steps. First, 15 μL of SD-Ura was dispensed into clear 384-well assay plates using a MULTIDROP™ Combi reagent dispenser. […]
(§4) After yeast delivery, assay plates were incubated under humidified conditions at 30° C. for 40 h. Yeast growth was monitored by reading the OD600 of each well using a microplate reader (Perkin Elmer EnVision™).

For experiment [2], the target named is human SCD1 (Homo sapiens (Human), UniProt O00767). In words: Yeast growth assay, strain expressing human SCD1 as the sole desaturase (reduced growth as surrogate for SCD inhibition). Format: cell-based. The settings on record: yeast with OLE1 deleted expressing human SCD1 from a plasmid; growth read as OD600 after 40 h at 30° C.; top drug concentration 33.3 μM. On the procedure: as §1, §2, §3, §4

The term IC50 denotes the concentration needed to halve the response being measured. A higher IC50 goes with weaker potency.

The molecule `CC(C)c1cc(C(=O)Nc2cnn(Cc3cnccc3C(F)(F)F)c2)no1` [Compound 161, 5-isopropyl-N-(1-((4-(trifluoromethyl)pyridin-3-yl)methyl)-1H-pyrazol-4-yl)isoxazole-3-carboxamide] came in with a half-inhibitory concentration (IC50) in experiment [1] of 1.4 µM.

The molecule `C=C(C)c1cc(C(=O)Nc2cnn(Cc3cnccc3C(F)(F)F)c2)no1` [Compound 166, 5-(prop-1-en-2-yl)-N-(1-((4-(trifluoromethyl)pyridin-3-yl)methyl)-1H-pyrazol-4-yl)isoxazole-3-carboxamide] displayed an IC50 in experiment [1] of 3.9 µM. This IC50 is about 2.8-fold higher than that of the molecule before. In experiment [2], `O=C(Nc1cnn(Cc2cnccc2C(F)(F)F)c1)c1cc(-c2ccncn2)on1` [Compound 200, 5-(pyrimidin-4-yl)-N-(1-((4-(trifluoromethyl)pyridin-3-yl)methyl)-1H-pyrazol-4-yl)isoxazole-3-carboxamide] displayed an IC50 of 6 µM.
